This experiment addresses human DA D2 receptor (Homo sapiens, UniProt P14416). The conditions noted are these: read-out: Ki, D2; [3H]N-Methyl-spiperone; HEK293 membranes.

By UniProt entry, the sequences of proteins in these tests, tags left out.
UniProt P14416, whole entry: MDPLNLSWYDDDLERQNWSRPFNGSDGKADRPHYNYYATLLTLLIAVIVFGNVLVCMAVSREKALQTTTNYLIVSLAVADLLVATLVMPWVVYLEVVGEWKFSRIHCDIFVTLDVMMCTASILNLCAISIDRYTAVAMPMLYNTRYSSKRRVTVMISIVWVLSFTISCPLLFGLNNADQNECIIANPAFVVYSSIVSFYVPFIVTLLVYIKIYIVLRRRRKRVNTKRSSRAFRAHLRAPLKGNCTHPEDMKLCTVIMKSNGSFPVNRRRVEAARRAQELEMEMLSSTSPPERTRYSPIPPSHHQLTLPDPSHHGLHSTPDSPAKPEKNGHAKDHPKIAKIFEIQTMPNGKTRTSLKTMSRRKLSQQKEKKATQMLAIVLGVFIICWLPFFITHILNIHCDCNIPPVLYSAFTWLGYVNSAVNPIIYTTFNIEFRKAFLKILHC

SMILES strings stand for the structures.

One may read the Ki as a dissociation constant, usually derived from enzyme kinetics or from competition with a known ligand.

For the molecule `COc1cc2c(cc1O)[C@@H]1Cc3ccc(OC)c(OC)c3CN1CC2` [l-ICP, l-isocorypalmine], the Ki was 41.8 ± 1.8 nM.

The values above are taken from article PMC3954112 (Drug and alcohol dependence, 2013).
